Measurements reported in ChEMBL document CHEMBL3868617, “Synthesis, COX-1/2 inhibition activities and molecular docking study of isothiazolopyridine derivatives” (Bioorg Med Chem, 2017).

By UniProt entry, the sequences of proteins in these tests, tags left out.
UniProt P23219, whole entry: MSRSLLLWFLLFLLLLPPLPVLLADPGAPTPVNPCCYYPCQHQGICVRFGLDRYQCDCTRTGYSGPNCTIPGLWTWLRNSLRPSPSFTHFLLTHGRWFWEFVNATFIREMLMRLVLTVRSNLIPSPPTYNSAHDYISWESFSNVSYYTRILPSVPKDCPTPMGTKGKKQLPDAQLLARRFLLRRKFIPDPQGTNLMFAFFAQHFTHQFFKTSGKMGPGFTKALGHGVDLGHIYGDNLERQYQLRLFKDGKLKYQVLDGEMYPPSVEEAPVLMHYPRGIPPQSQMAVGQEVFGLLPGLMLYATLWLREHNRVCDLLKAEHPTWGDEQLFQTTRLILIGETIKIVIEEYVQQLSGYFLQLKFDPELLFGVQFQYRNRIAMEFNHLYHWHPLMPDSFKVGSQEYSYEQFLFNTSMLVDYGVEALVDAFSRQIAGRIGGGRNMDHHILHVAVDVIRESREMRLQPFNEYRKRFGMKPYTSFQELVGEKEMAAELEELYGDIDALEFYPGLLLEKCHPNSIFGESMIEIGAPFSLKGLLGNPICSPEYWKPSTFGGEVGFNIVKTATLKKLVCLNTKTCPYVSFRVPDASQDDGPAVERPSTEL

Columns and labels:
[1] = target: T1, Prostaglandin G/H synthase 1 (Homo sapiens, UniProt P23219); experiment: Inhibition of COX-1 (unknown origin)
[2] = target: T1, Prostaglandin G/H synthase 1; experiment: Inhibition of COX-1 (unknown origin) using arachidonic acid as substrate preincubated for 2 mins followed by substrate addition in presence of TMPD by spectrophotometric analysis

With `CC(C(=O)O)c1ccc(-c2ccccc2)c(F)c1` (stereo not drawn) [FLURBIPROFEN] the IC50 [1] was 0.01 to 2 µM.

For `CN1C(C(=O)Nc2ccccn2)=C(O)c2ccccc2S1(=O)=O` [PIROXICAM], the IC50 ([2]; read-out: IC50) was 255 µM and the IC50 ([2]; read-out: pIC50 (converted)) was 85.1 µM.
